# What was measured:
# [1] = Antipsychotic induced catalepsy (bar test); conditions: male, Sprague-Dawley, rat, in vivo, intraperitoneal
# Male Sprague-Dawley rats = assay: Antipsychotic induced catalepsy (bar test); conditions: olanzapine 10 mg/kg
# [2] = tested on: Female Wistar rats on high fat diet; assay: Antipsychotic (olanzapine) induced weight gain; conditions: olanzapine 3 mg/kg i.p.
compound,measurement,setting,value
"Cc1cc2c(s1)Nc1ccccc1N=C2N1CCN(C)CC1 [olanzapine, reference compound]",ED50 at 30 min,[1],9.34 mg/kg
same,induction of catalepsy,Male Sprague-Dawley rats,only induces catalepsy at higher dose
same,weight gain vs. saline controls,[2],significantly caused an increase in weight gain
same,time at which the increase in weight gain was significant,[2]; lasted to the end of the study,5 days
